This is an account of results in patent US20200095296A1, “USE OF PEPTIDES AS BIOMARKERS IN THE DIAGNOSIS, CONFIRMATION AND TREATMENT OF A NEUROLOGICAL DISORDER AND TCR AND/OR HLA IMMUNOPROFILING IN NEURODEGENERATIVE DISEASE” (THE TRUSTEES OF COLUMBIA UNIVERSITY IN THE CITY OF NEW YORK, priority 2017, published 2020).

In this test the target is HLA DQB1*03:02 (human). The test is described as follows: competition with radiolabeled peptide, purified HLA.

The substance alpha-syn peptide aa126…aa140 had an IC50 of 5.8 µM.
